Earlier results, collected in patent US20210319872A1, “DRUG AND DEVICE COMBINATION PRODUCTS WITH IMPROVED SAFETY AND EFFICACY PROFILES” (priority 2016, published 2021).

Details: in vivo

In the case of `OCCOCCN1CCN(C2=Nc3ccccc3Sc3ccccc32)CC1` [Seroquel (Quetiapine)], the “Increased diastolic arterial pressure” value is given as 40.6%), Increased systolic arterial pressure (Pediatric, 15.2%), and the “Increased systolic arterial pressure” value is given as 40.6%), Increased systolic arterial pressure (Pediatric, 15.2%),.
